Experimental data from US20090006059A1.
pIC50: −log10 of the molar value.

Chains of the proteins cited; added tags and fusions are not shown. Lines headed by an entry give the natural chain unless they say otherwise; changes in a name come on top. Residues count along the entry.
UniProt P45984, whole entry: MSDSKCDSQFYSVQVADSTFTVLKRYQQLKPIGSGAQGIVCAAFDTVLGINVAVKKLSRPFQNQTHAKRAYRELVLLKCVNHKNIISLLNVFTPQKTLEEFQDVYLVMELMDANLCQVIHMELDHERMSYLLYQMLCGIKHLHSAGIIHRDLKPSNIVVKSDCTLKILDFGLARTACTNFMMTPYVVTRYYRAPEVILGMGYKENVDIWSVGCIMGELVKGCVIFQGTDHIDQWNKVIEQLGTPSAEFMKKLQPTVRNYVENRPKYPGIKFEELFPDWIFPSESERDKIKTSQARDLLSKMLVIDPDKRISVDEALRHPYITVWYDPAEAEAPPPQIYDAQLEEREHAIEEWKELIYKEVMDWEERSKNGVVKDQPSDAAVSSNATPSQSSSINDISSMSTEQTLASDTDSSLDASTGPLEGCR
UniProt Q16539, 2-360 limits assumed: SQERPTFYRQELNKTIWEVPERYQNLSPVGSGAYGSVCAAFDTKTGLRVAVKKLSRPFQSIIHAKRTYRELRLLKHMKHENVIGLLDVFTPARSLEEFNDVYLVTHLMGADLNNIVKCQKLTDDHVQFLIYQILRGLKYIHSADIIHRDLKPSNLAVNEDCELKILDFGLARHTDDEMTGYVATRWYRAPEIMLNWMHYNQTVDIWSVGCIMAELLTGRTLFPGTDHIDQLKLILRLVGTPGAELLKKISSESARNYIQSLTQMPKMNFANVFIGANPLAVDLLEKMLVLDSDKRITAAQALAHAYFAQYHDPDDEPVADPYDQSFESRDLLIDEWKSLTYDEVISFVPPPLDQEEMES

How the values were obtained:
JNK2 = JNK2 (Homo sapiens, UniProt P45984); assay: IC50 of inhibitor for JNK2 kinase; details: read-out: IC50 for JNK2
P38A = P38A (Homo sapiens, UniProt Q16539); assay: IC50 of inhibitor for P38A kinase; details: read-out: IC50 for P38A

## CS(=O)(=O)c1ccc(Cl)c(-c2n[nH]c3nc(Oc4ccc(F)cc4F)ncc23)c1
JNK2
  pIC50: < 4.70
P38A
  pIC50: 8.22
